## CycPeptMPDB entries from one study

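Conditions beyond the assay type are not listed; see the original paper. The list need not hold all peptides of the study. Peptides that the database sets to -10, its floor, are left out.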

PAMPA measures passive passage through an artificial lipid membrane.
Values are log10 P with P in cm/s, so -5 is more permeable than -7.

| SMILES | PAMPA (log10 cm/s) |
|---|---|
| COc1ccc(C[C@@H]2NC(=O)[C@H](CC(C)C)NC(=O)[C@@H](CC(C)C)NC(=O)[C@@H](CC(C)C)NC(=O)[C@@H](CC(C)C)NC(=O)[C@@H]3CCCN3C2=O)cc1 | -6.47 |
| COc1ccc(C[C@@H]2NC(=O)[C@@H](CC(C)C)NC(=O)[C@@H](CC(C)C)NC(=O)[C@H](CC(C)C)NC(=O)[C@@H](CC(C)C)NC(=O)[C@@H]3CCCN3C2=O)cc1 | -6.68 |
| COc1ccc(C[C@@H]2NC(=O)[C@@H](CC(C)C)NC(=O)[C@@H](CC(C)C)NC(=O)[C@@H](CC(C)C)NC(=O)[C@H](CC(C)C)NC(=O)[C@@H]3CCCN3C2=O)cc1 | -7.16 |
| COc1ccc(C[C@@H]2NC(=O)[C@H](CC(C)C)NC(=O)[C@@H](CC(C)C)NC(=O)[C@H](CC(C)C)NC(=O)[C@H](CC(C)C)NC(=O)[C@H]3CCCN3C2=O)cc1 | -6.75 |
| COc1ccc(C[C@@H]2NC(=O)[C@H](CC(C)C)NC(=O)[C@@H](CC(C)C)NC(=O)[C@@H](CC(C)C)NC(=O)[C@H]3CCCN3C(=O)[C@H](CC(C)C)NC(=O)[C@H]3CCCN3C2=O)cc1 | -7.12 |
| COc1ccc(C[C@@H]2NC(=O)[C@@H](CC(C)C)NC(=O)[C@@H](CC(C)C)NC(=O)[C@@H](CC(C)C)NC(=O)[C@@H](CC(C)C)NC(=O)[C@@H]3CCCN3C2=O)cc1 | -6.52 |
| COc1ccc(C[C@@H]2NC(=O)[C@H](CC(C)C)NC(=O)[C@H](CC(C)C)NC(=O)[C@@H]3CCCN3C(=O)[C@@H](CC(C)C)NC(=O)[C@H](CC(C)C)NC(=O)[C@H]3CCCN3C2=O)cc1 | -6.95 |
| COc1ccc(C[C@@H]2NC(=O)[C@@H](CC(C)C)NC(=O)[C@H]3CCCN3C(=O)[C@H](CC(C)C)NC(=O)[C@H](CC(C)C)NC(=O)[C@@H]3CCCN3C2=O)cc1 | -7.27 |
| COc1ccc(C[C@@H]2NC(=O)[C@H](CC(C)C)NC(=O)[C@H](CC(C)C)NC(=O)[C@@H](CC(C)C)NC(=O)[C@H]3CCCN3C(=O)[C@@H]3CCCN3C2=O)cc1 | -7.05 |
| COc1ccc(C[C@@H]2NC(=O)[C@@H](CC(C)C)NC(=O)[C@@H]3CCCN3C(=O)[C@@H](CC(C)C)NC(=O)[C@H]3CCCN3C(=O)[C@H](CC(C)C)NC(=O)[C@H]3CCCN3C2=O)cc1 | -7.29 |
| COc1ccc(C[C@@H]2NC(=O)[C@@H](CC(C)C)NC(=O)[C@H](CC(C)C)NC(=O)[C@@H](CC(C)C)NC(=O)[C@H](CC(C)C)NC(=O)[C@H](CC(C)C)NC(=O)[C@H]3CCCN3C2=O)cc1 | -6.41 |

Excerpt, the final 2 entries:

| SMILES | PAMPA (log10 cm/s) |
|---|---|
| COc1ccc(C[C@@H]2NC(=O)[C@@H](CC(C)C)NC(=O)[C@@H]3CCCN3C(=O)[C@@H](CC(C)C)NC(=O)[C@H]3CCCN3C(=O)[C@H](CC(C)C)NC(=O)[C@H]3CCCN3C2=O)cc1 | -7.29 |
| COc1ccc(C[C@@H]2NC(=O)[C@@H](CC(C)C)NC(=O)[C@H](CC(C)C)NC(=O)[C@@H](CC(C)C)NC(=O)[C@H](CC(C)C)NC(=O)[C@H](CC(C)C)NC(=O)[C@H]3CCCN3C2=O)cc1 | -6.41 |

Values of Rezai et al. 2006, doi:10.1021/ja063076p, as listed in CycPeptMPDB.